{"sequences": {"note": "The chains behind the UniProt entries cited, without tags or fusion partners. Where a name states a change or a piece, a line headed by the entry shows the natural chain unless it says otherwise.", "UniProt P05067": "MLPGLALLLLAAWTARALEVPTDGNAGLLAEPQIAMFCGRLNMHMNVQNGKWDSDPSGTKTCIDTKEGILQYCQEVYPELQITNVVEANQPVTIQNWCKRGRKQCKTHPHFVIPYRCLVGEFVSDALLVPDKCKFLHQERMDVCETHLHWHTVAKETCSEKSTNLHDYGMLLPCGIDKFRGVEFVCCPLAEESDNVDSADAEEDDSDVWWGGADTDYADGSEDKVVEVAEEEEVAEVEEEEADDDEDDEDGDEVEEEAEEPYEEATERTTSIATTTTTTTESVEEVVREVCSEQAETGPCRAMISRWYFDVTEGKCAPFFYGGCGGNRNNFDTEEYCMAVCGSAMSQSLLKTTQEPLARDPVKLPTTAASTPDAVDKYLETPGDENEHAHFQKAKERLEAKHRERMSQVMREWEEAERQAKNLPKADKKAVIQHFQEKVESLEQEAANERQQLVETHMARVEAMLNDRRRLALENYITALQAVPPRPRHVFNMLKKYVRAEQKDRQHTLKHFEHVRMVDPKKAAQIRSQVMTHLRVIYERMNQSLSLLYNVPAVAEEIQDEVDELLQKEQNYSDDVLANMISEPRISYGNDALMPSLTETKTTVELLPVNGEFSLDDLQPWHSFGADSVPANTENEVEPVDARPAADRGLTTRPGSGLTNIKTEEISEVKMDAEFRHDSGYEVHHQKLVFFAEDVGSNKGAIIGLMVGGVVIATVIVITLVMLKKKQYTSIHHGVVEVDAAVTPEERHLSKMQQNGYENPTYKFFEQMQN"}, "source": "paper PMC6716341", "about": "(ACS Central Science, 2019)", "origin": "cited, not measured here", "tested_on": "5XFAD transgenic mice", "conditions": "injection; cited from earlier work", "data": [{"substance": "canonical Aβ1–16: canonical Aβ1–16 (literature) (DAEFRHDSGYEVHHQK; Amyloid-beta protein 42; UniProt P05067 672-687, looked up, fragment)", "values": [{"measurement": "amyloid plaque accumulation", "result": "does not"}]}, {"substance": "isomerized Aβ1–16: isomerized Aβ1–16, injected in 5XFAD mice (literature) (DAEFRHDSGYEVHHQK; Amyloid-beta protein 42 isomerized; UniProt P05067 672-687, looked up, fragment)", "values": [{"measurement": "amyloid plaque accumulation", "result": "significantly increased amyloid plaque accumulation"}]}]}
